The results in this text go back to patent US12209122.

Chains of the proteins cited; added tags and fusions are not shown. Residues count along the entry.
UniProt P01375, 77-233 limits assumed: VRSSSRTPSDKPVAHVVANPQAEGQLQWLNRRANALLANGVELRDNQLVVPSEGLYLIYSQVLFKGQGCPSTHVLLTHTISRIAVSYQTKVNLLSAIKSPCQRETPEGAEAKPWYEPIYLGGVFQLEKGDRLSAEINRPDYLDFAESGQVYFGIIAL

The assay addresses recombinant human TNFα (Peprotech, Cat. No. 300-01) (human, UniProt P01375 77-233). Nature of the assay: cell-based or functional assay.

B1: infliximab (antibody, V domains shown)
VH: EVKLEESGGGLVQPGGSMKLSCVASGFIFSNHWMNWVRQSPEKGLEWVAEIRSKSINSATHYAESVKGRFTISRDDSKSAVYLQMTDLRTEDTGVYYCSRNYYGSTYDYWGQGTTLTVSS
VL: DILLTQSPAILSVSPGERVSFSCRASQFVGSSIHWYQQRTNGSPRLLIKYASESMSGIPSRFSGSGSGTDFTLSINTVESEDIADYYCQQSHSWPFTFGSGTNLEVKR
Turning to B1, the “L929 assay, IC50 of neutralization of TNFα-induced apoptosis (100 pM TNFα)” value turned out to be 36.2 ng/ml.
